{"sequences": {"note": "Amino acid sequences for entries named in this document (tags omitted). Residues count along the entry.", "UniProt Q9S5X0, 2-726": "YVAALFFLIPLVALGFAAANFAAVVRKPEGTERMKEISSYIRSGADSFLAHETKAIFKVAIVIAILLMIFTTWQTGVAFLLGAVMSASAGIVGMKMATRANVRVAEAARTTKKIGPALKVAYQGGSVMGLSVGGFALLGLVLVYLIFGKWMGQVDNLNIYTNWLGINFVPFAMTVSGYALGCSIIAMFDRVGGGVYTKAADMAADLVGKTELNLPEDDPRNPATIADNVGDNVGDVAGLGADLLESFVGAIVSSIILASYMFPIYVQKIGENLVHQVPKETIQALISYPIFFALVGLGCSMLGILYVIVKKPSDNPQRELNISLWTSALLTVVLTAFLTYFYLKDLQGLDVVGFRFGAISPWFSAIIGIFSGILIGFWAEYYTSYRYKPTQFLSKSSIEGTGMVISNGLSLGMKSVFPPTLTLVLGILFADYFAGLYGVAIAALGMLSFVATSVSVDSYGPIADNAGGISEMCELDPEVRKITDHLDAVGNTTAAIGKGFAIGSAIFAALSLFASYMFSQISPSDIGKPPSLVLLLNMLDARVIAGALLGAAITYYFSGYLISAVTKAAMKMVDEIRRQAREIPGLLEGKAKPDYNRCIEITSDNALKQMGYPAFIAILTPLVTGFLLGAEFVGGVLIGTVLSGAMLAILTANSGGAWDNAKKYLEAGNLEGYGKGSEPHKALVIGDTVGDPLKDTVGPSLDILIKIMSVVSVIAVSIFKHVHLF"}, "source": "paper PMC10897367", "about": "(EMBO Reports, 2024)", "molecules": {"B1": {"name": "PaPPase (Pyrobaculum aerophilum str. IM2) (protein)", "chain": "NMISYALLGVILGISGVIYAVYLAVWVLRQDPGNEKMRFISQAIATGARAYLFRQYRTLAVLLVILAVLILVAIDMPRRTFGLTALAFIVGALGSMLAGYLGMYVTTRSASRVAQAAATGGMGKALLVSWRAGAVMGLSLASIALLLISGFYLVFRSVLPDDWAVPLVALGFGASLVTLFMRVGGGIYTKAADLGADLVGKVEAGIPEDDPRNPGVIADNVGDNVGDVAGMAADVYESYIVTVTAAIFLAAILGLPTQFIEAIILFAALALVATFAGVNLLKTTGVKHPLSSISLAIYATIGLSVVLFFIGAFTLGLDSTKALALAATTSLGAVIAPLIVKITDYYTSYNYGPVRKIAEQAKISPATVIITGYGVGLMSAIPVIAVIVAVLGISYMIGYYTVPVSGFGELSKYLAGIFGTAMASVGLLVVAGIIITADSYGPVSDNAGGVVEMAGLPDEVREITDVLDSVGNTTKATTKGYAIASAALAALVLFIALIFEIVYSASKILGKGIVDMISESLSGLQLINANVLIGAFLGVALVYFFSSRTLEAVGRTAMEIVEEIRRQFREKPGILEWKEQPDYARVVDIATRRALGEFLIPGLAAIVLPLITGLLLGWNALAGLIMGAIVAGVPRALLMANAGGAWDNAKKYIEIQGLKKTEMHKAAVIGDTVGDPMKDTVGPSLNPLIKVLNTLSVVFTYVIVSTNIALGIWPSGLLPF"}}, "key": {"[1]": {"target": "T1, PaPPase (Pyrobaculum aerophilum, UniProt Q8ZWI8)", "T1 construct": "gene hppA", "conditions": "Mg5IDP complex in the active site of both subunits; 2 mM IDP, MES pH 6.5; 3.8-5.3 Å anisotropic"}, "[2]": {"target": "T2, TmPPase (Thermotoga maritima, UniProt Q9S5X0)", "T2 construct": "gene hppA", "conditions": "PPi in active site of subunit A only, 600 s after Na+ trigger; 2 mM K4PPi, 20 mM NaCl, 2.4 mM MgCl2, pH 8.0"}, "[3]": {"substrate": "O=P(O)(O)OP(=O)(O)O", "assay": "purified protein", "conditions": "substrate counted as Mg2PPi, 0 mM K+, 5 mM free Mg2+, 50 mM MOPS-TMAOH pH 7.2, 40 °C, substrate-inhibition (two-site dimer) fit, stronger site"}}}
{"molecule": "O=P(O)(O)NP(=O)(O)O", "note": "[IDP]", "values": [{"measurement": "X-ray crystal structure", "setting": "[1]", "value": "The atomic coordinates and structure factors of the PaPPase:Mg5IDP complex (PDB ID: 8B37)"}]}
{"molecule": "O=P(O)(O)OP(=O)(O)O", "note": "[pyrophosphate]", "values": [{"measurement": "time-resolved cryo-trapping X-ray crystallography", "setting": "[2]", "value": "the positive density at the active site of subunit A changed but was still fit best by PPi"}]}
{"molecule": "B1", "values": [{"measurement": "Km", "setting": "[3]", "value": "2.42 ± 0.21", "unit": "µM"}]}
